Our source for the IC50 values is article PMC3794980, “Identification of Conserved and HLA Promiscuous DENV3 T-Cell Epitopes” (PLoS Neglected Tropical Diseases, 2013).

Targets include DRB1*0101 (Homo sapiens, UniProt P01903+P01911, A100R/D57E/F55L/F60I/F76Y/I96L/L162R/M171V/P40L/Q125E/R42F/V115G/Y59C); DRB1*0404 (Homo sapiens, UniProt P01903+P01911, A100R/A169T/F76Y/I96L/K127E/L162R/M171V/N62H/P40V/Q125Y/R42H/S133A/S149N/S66Y/V209L/W38E); DRB1*0701 (Homo sapiens, UniProt P01903+P01911, A100R/A102G/A103Q/D57E/D86V/E43K/F76Y/K127E/L162R/M171V/P40G/Q125H/Q99D/R33Q/R42Y/R54Q/S133A/S66F/T210M/V115G/Y107V/Y59L/Y89S); DRB1*0405 (Homo sapiens, UniProt P01903+P01911, A100R/A169T/D86S/F76Y/I96L/K127E/L162R/M171V/N62H/P40V/Q125Y/R42H/S133A/S149N/S66Y/V115G/V209L/W38E); DRB1*0301 (Homo sapiens, UniProt P01903+P01911, A100K/A102G/A103R/A169T/F55Y/I96L/K41T/L162R/M171V/P40S/Q125H/Q178H/Q39Y/R42S/S66N/T106N/T262R/W38E/Y61H); DRB1*0401 (Homo sapiens, UniProt P01903+P01911, A100K/A169T/F76Y/I96L/K127E/L162R/M171V/N62H/P40V/Q125Y/R42H/S133A/S149N/S66Y/V115G/V209L/W38E); DRB1*1501 (Homo sapiens, UniProt P01903+P01911); DRB1*1302 (Homo sapiens, UniProt P01903+P01911, A100E/A169T/K41T/L162R/M171V/P40S/Q125H/Q178H/Q39Y/Q99D/R42S/S66N/T262R/V115G/W38E/Y61H); DRB1*0802 (Homo sapiens, UniProt P01903+P01911, A100R/A103L/A169T/F76Y/H45Y/I96F/K41T/L162R/M171V/P40S/Q125H/Q178H/Q39Y/Q99D/R218S/R42G/S66Y/V115G/W38E); DRB1*1101 (Homo sapiens, UniProt P01903+P01911, A100R/A169T/A87E/I96F/K41T/L162R/M171V/P40S/Q125H/Q178H/Q39Y/Q99D/R42S/S66Y/T262R/V115G/W38E); DRB1*0901 (Homo sapiens, UniProt P01903+P01911, A100R/A103E/D57H/D86V/F55Y/F60I/F76Y/I96F/K127E/L162R/M171V/P40D/Q125H/Q99R/R33Q/R42F/S133A/S66N/T210M/V115G/W38K/Y107V/Y59G/Y89S).

Experiment in all cases: biochemical
What all share (type): binding

[1] abbreviates: competitive inhibition of radiolabeled standard peptide, '-' distinct from ND, read-out: Binding Affinity (nM) DRB1*1302.
The mark [2] stands for this setting: read-out: Binding Affinity (nM) DRB1*0802.
Where [3] appears, read: read-out: Binding Affinity (nM) DRB1*1101.
The mark [4] stands for this setting: competitive inhibition of radiolabeled standard peptide, '-' distinct from ND, read-out: Binding Affinity (nM) DRB1*0901.
Setting [5] is: read-out: Binding Affinity (nM) DRB1*0404.
Where [6] appears, read: read-out: Binding Affinity (nM) DRB1*0701.

Read-outs that look alike come from different tables or passages of the source. A value given as a limit tells only on which side of the number the result lay.

Turning to `CSCC[C@H](N)C(=O)N[C@@H](CCCNC(=N)N)C(=O)N[C@@H](CS)C(=O)N[C@H](C(=O)NCC(=O)N[C@H](C(=O)NCC(=O)N[C@@H](CC(N)=O)C(=O)N[C@@H](CCCNC(=N)N)C(=O)N[C@@H](CC(=O)O)C(=O)N[C@@H](Cc1ccccc1)C(=O)N[C@H](C(=O)N[C@@H](CCC(=O)O)C(=O)NCC(=O)N[C@@H](CC(C)C)C(=O)O)C(C)C)C(C)C)C(C)C` [Envelope 1-15], the IC50 against DRB1*0101 is 11100 nM; at DRB1*0404, 6340 nM; against DRB1*0701, 6720 nM; on DRB1*0405, 3130 nM; against DRB1*0301, 5620 nM; on DRB1*0401 (read-out: Binding Affinity (nM) DRB1*0401), > 20000 nM. In addition, the IC50 at DRB1*1501 is 5790 nM; at DRB1*1302 (setting [1]) it was 6090 nM; on DRB1*0802 (setting [2]), > 20000 nM; on DRB1*1101 (setting [3]), > 20000 nM; on DRB1*0901 (setting [4]), > 20000 nM.

As for `CC[C@H](C)[C@H](NC(=O)[C@H](CC(C)C)NC(=O)[C@H](CCCCN)NC(=O)CNC(=O)[C@H](CO)NC(=O)[C@@H](NC(=O)[C@@H](NC(=O)[C@@H](NC(=O)[C@@H](NC(=O)[C@H](CCCNC(=N)N)NC(=O)[C@H](CC(C)C)NC(=O)[C@@H](N)CO)[C@@H](C)O)[C@@H](C)O)[C@@H](C)O)C(C)C)C(=O)N[C@@H](Cc1c[nH]cn1)C(=O)N[C@@H](CCC(=O)O)C(=O)N[C@@H](Cc1c[nH]c2ccccc12)C(=O)O` [NS1 297-311], the IC50 against DRB1*0101 turned out to be 228 nM; at DRB1*0404 it was 15500 nM; against DRB1*0701, 262 nM; against DRB1*0405 it was 15200 nM; against DRB1*0301, 2420 nM; against DRB1*0401 it was 484 nM. Further, the IC50 was 736 nM against DRB1*1501; 2410 nM on DRB1*1302 (setting [1]); 561 nM on DRB1*0802; > 20000 nM on DRB1*1101 (setting [3]); 2310 nM on DRB1*0901 (setting [4]).

Take `CC[C@H](C)[C@H](NC(=O)[C@H](C)NC(=O)[C@@H](N)CCSC)C(=O)N[C@@H](CO)C(=O)NCC(=O)N[C@@H](CC(=O)O)C(=O)N[C@@H](CC(=O)O)C(=O)N[C@@H](CS)C(=O)N[C@H](C(=O)N[C@H](C(=O)N[C@@H](CCCCN)C(=O)N1CCC[C@H]1C(=O)N[C@H](C(=O)N[C@@H](CC(=O)O)C(=O)N[C@@H](CC(=O)O)C(=O)N[C@@H](CCCNC(=N)N)C(=O)N[C@@H](Cc1ccccc1)C(=O)O)[C@@H](C)CC)C(C)C)C(C)C` [NS5 658-674]: the IC50 against DRB1*0101 turned out to be 6910 nM; against DRB1*0404 it was 6340 nM; at DRB1*0701, 2770 nM; against DRB1*0405 it was 2270 nM; at DRB1*0301, 2680 nM; against DRB1*0401, 8600 nM. For the same compound, the IC50 on DRB1*1501 is 6690 nM; on DRB1*1302 (read-out: Binding Affinity (nM) DRB1*1302), > 20000 nM; on DRB1*0802 it was 453 nM; against DRB1*1101 it was 7320 nM; against DRB1*0901, 12200 nM.

In the case of `CC[C@H](C)[C@H](NC(=O)[C@H](C)NC(=O)CNC(=O)[C@@H](NC(=O)[C@H](CCC(=O)O)NC(=O)CN)[C@@H](C)CC)C(=O)N[C@@H](C)C(=O)N[C@@H](CC(C)C)C(=O)N[C@@H](CC(=O)O)C(=O)N[C@@H](Cc1ccccc1)C(=O)N[C@@H](CCCCN)C(=O)N1CCC[C@H]1C(=O)NCC(=O)N[C@H](C(=O)N[C@@H](CO)C(=O)O)[C@@H](C)O` [NS3 121-135], the IC50 on DRB1*0101 was 3960 nM; on DRB1*0404 (setting [5]), > 20000 nM; against DRB1*0701, 2300 nM; against DRB1*0405, 17500 nM; against DRB1*0301 it was 8.6 nM; at DRB1*0401 it was 7860 nM. Moreover, the IC50 was 14400 nM at DRB1*1501; 2700 nM at DRB1*1302 (setting [1]); 3610 nM at DRB1*0802; > 20000 nM at DRB1*1101 (setting [3]); 9790 nM at DRB1*0901 (setting [4]).

As to `CC[C@H](C)[C@H](NC(=O)[C@H](CC(=O)O)NC(=O)[C@H](CCSC)NC(=O)[C@@H](NC(=O)[C@@H](NC(=O)CNC(=O)[C@H](CCCCN)NC(=O)[C@@H]1CCCN1C(=O)[C@@H](NC(=O)[C@@H]1CCCN1)[C@@H](C)O)[C@@H](C)O)C(C)C)C(=O)N[C@H](C(=O)N[C@@H](CO)C(=O)N[C@@H](CCCNC(=N)N)C(=O)N[C@@H](CCCCN)C(=O)N[C@@H](CC(=O)O)C(=O)N[C@@H](CCC(N)=O)C(=O)N[C@@H](CCCNC(=N)N)C(=O)O)[C@@H](C)CC` [NS5 582-598], the IC50 on DRB1*0101 was 312 nM; on DRB1*0404, 9770 nM; at DRB1*0701 (setting [6]) it was > 20000 nM; against DRB1*0405 it was 807 nM; against DRB1*0301, 1170 nM; at DRB1*0401 it was 160 nM. The IC50 against DRB1*1501 was found to be 4680 nM; on DRB1*1302, 1640 nM; at DRB1*0802, 1840 nM; against DRB1*1101, 106 nM; against DRB1*0901, 5860 nM.

Turning to `CC(C)C[C@H](NC(=O)[C@H](CCCCN)NC(=O)[C@@H](NC(=O)[C@H](CCCCN)NC(=O)[C@H](CCC(N)=O)NC(=O)[C@H](Cc1ccc(O)cc1)NC(=O)[C@H](CCC(=O)O)NC(=O)[C@@H](NC(=O)[C@H](CC(=O)O)NC(=O)[C@H](Cc1ccccc1)NC(=O)[C@@H](NC(=O)[C@@H](N)CCCCN)[C@@H](C)O)[C@@H](C)O)[C@@H](C)O)C(=O)N[C@@H](CC(N)=O)C(=O)N[C@@H](CC(=O)O)C(=O)N[C@@H](Cc1c[nH]c2ccccc12)C(=O)O` [NS3 389-403], the IC50 against DRB1*0101 was 2280 nM; on DRB1*0404 (setting [5]) it was > 20000 nM; against DRB1*0701, 1560 nM; against DRB1*0405, 15200 nM; against DRB1*0301, 3180 nM; at DRB1*0401 it was 11700 nM. Moreover, the IC50 is 6120 nM on DRB1*1501; 16400 nM on DRB1*1302; > 20000 nM at DRB1*0802 (setting [2]); 676 nM at DRB1*1101; 15600 nM at DRB1*0901.

In the case of `CC[C@H](C)[C@H](NC(=O)[C@H](C)N)C(=O)N[C@@H](CC(C)C)C(=O)N1CCC[C@H]1C(=O)N[C@@H](CCC(=O)O)C(=O)N[C@@H](Cc1ccc(O)cc1)C(=O)NCC(=O)N[C@H](C(=O)N[C@@H](CC(C)C)C(=O)NCC(=O)N[C@@H](CC(C)C)C(=O)N[C@@H](CCC(=O)O)C(=O)N[C@@H](CS)C(=O)N[C@@H](CO)C(=O)N1CCC[C@H]1C(=O)O)[C@@H](C)O` [Envelope 171-185], the IC50 is 63 nM at DRB1*0101; 3230 nM at DRB1*0404; > 20000 nM at DRB1*0701 (setting [6]); 1290 nM at DRB1*0405; 2630 nM on DRB1*0301; 485 nM against DRB1*0401. Moreover, the IC50 on DRB1*1501 was found to be 3780 nM; against DRB1*1302, 2270 nM; against DRB1*0802, 91 nM; against DRB1*1101, 13800 nM; against DRB1*0901 it was 1300 nM.

`CC[C@H](C)[C@H](NC(=O)[C@@H](NC(=O)[C@H](Cc1ccccc1)NC(=O)[C@H](CO)NC(=O)[C@H](CO)NC(=O)[C@H](CC(N)=O)NC(=O)[C@H](CCC(N)=O)NC(=O)[C@@H](NC(=O)[C@H](CCC(=O)O)NC(=O)[C@H](C)NC(=O)[C@@H](NC(=O)[C@@H](NC(=O)[C@@H](NC(=O)[C@H](CCCCN)NC(=O)[C@H](C)N)[C@@H](C)CC)C(C)C)[C@@H](C)O)[C@@H](C)O)[C@@H](C)CC)C(=O)O` [NS1 121-135]: the IC50 turned out to be 355 nM against DRB1*0101; 1030 nM on DRB1*0404; 2560 nM against DRB1*0701; 1100 nM against DRB1*0405; 1010 nM on DRB1*0301; 11 nM on DRB1*0401. For the same compound, the IC50 was 2920 nM at DRB1*1501; 1100 nM against DRB1*1302; 45 nM against DRB1*0802; > 20000 nM at DRB1*1101 (setting [3]); 2180 nM against DRB1*0901.
